These results are taken from patent US10201625B2, “Radiolabelled octreotate analogues as PET tracers” (IMPERIAL COLLEGE, priority 2011, dated 2019).

The chains behind the UniProt entries cited, without tags or fusion partners. Where a name states a change or a piece, a line headed by the entry shows the natural chain unless it says otherwise.
UniProt P30680: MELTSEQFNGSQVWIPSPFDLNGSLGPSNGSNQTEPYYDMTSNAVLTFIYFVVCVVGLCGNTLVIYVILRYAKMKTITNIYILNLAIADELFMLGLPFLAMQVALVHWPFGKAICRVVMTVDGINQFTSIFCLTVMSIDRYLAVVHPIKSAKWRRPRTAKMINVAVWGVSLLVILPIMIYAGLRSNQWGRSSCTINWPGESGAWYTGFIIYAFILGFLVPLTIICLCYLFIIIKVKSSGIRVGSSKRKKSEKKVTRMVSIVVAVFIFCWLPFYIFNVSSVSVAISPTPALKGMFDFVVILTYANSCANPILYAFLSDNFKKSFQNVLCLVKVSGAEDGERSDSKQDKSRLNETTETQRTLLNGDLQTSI

Read-outs that look alike come from different tables or passages of the source.

One series addresses T1, somatostatin receptor (Rattus norvegicus, UniProt P30680).
T1 construct: endogenous in cells; host or cells: AR42J pancreatic tumour cells (whole cells)
In words: Competitive binding assay displacing [111In]-DTPA-Octreotide (OctreoScan) on AR42J tumour cells. Particulars: [19F]-triazole, read-out: Triazole analogue (b) IC50.

The subject of series [1] is AR42J tumor xenografts. In words: Dynamic PET imaging of AR42J tumor bearing mice. It is filed as in vivo. Particulars: for Tumor radiotracer uptake at 60 min by imaging: AR42J tumor. From the text:
Briefly, tail veins were cannulated under general anesthesia (isofluorane).

In series [2] the test system is AR42J tumor xenografts. In words: Direct counting of tissue radioactivity (γ-counter), AR42J tumor. It is filed as in vivo, mice.
The conditions of series [3]: mouse plasma 30 min after i.v. injection, radio-HPLC.
Series [4] concerns HCT116 xenografts. Particulars: HCT116 tumor (low sstr-2).
In series [5] the test system is HCT116 xenografts. Particulars: HCT116 tumor (low sstr-2). This is another data set of the same source.
The mark [6] stands for this setting: blocking: unlabelled octreotide 10 mg/kg i.v. 10 min before radiotracer.

With FET-βAG-TOGA [5b], the IC50 (commonly the midpoint of a concentration-inhibition curve) at somatostatin receptor came to 1.6 ± 0.2 nM. Besides, the “Tumor radiotracer uptake at 60 min by imaging” value in the series with AR42J tumor xenografts [1] (60 min, i.v.) was determined as 8.23 ± 2.02 % ID/ml; in the series with AR42J tumor xenografts [1] (setting [6]) it was 6.24 ± 0.64 % ID/ml; in the series with HCT116 xenografts [4] it was 2.42 ± 0.35 % ID/ml. Further, the “Kidney uptake in words” value in the series with AR42J tumor xenografts [1] (PET, AR42J tumor bearing mice) is given as “highest”. In addition, in the series with AR42J tumor xenografts [1] (PET, AR42J tumor bearing mice), the “Liver uptake in words” value is listed as “lowest liver uptake”. Besides, in the series with AR42J tumor xenografts [1] (PET, mice), the Bone uptake entry is “low bone uptake”. The “Tumor radiotracer uptake after 60 min by γ-counting” value turned out to be 11.58 ± 0.67 % ID/g in the series on AR42J tumor xenografts [2] (after 60 min PET scan), 3.93 ± 0.99 % ID/g in the series on AR42J tumor xenografts [2] (setting [6]) and 0.52 ± 0.39 % ID/g in the series on HCT116 xenografts [5]. In addition, the “In vivo stability in plasma” value is on record as “only intact parent tracer was found” in series [3] (listed as FET-βAG-TOCA) and “stable radiotracer” in series [3] (listed as [^18F]-FET-βAG-TOCA).
